The record followed here is patent US11096909B2, “Compounds for use in the treatment of cancer” (University of Oulu, priority 2016, dated 2021).

The chains behind the UniProt entries cited, without tags or fusion partners. Where a name states a change or a piece, a line headed by the entry shows the natural chain unless it says otherwise. Residues count along the entry.
UniProt Q9H0J9: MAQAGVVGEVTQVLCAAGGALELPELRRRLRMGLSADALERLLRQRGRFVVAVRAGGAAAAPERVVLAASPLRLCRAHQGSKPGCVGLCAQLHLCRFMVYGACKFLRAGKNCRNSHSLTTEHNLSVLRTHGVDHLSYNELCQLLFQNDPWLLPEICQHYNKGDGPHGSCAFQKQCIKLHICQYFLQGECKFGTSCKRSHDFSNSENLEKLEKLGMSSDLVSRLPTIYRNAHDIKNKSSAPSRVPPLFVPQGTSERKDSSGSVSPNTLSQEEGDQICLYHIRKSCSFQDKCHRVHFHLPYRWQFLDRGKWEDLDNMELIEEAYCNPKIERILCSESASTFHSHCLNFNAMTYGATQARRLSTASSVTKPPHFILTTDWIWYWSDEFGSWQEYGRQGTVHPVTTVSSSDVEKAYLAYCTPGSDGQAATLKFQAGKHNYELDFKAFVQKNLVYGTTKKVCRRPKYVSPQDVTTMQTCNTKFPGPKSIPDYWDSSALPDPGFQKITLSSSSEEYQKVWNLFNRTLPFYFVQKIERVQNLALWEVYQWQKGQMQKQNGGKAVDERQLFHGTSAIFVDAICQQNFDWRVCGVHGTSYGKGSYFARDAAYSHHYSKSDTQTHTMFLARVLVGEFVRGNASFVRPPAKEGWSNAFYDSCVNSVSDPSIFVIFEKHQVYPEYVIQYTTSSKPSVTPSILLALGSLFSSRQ
UniProt Q53GL7, 806-1025 limits assumed: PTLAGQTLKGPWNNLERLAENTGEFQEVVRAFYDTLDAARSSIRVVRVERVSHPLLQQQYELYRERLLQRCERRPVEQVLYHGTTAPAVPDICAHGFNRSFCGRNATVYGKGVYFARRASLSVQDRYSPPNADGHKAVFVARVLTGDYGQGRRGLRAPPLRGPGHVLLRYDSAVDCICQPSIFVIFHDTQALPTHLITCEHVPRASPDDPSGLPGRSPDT
UniProt Q9UGN5: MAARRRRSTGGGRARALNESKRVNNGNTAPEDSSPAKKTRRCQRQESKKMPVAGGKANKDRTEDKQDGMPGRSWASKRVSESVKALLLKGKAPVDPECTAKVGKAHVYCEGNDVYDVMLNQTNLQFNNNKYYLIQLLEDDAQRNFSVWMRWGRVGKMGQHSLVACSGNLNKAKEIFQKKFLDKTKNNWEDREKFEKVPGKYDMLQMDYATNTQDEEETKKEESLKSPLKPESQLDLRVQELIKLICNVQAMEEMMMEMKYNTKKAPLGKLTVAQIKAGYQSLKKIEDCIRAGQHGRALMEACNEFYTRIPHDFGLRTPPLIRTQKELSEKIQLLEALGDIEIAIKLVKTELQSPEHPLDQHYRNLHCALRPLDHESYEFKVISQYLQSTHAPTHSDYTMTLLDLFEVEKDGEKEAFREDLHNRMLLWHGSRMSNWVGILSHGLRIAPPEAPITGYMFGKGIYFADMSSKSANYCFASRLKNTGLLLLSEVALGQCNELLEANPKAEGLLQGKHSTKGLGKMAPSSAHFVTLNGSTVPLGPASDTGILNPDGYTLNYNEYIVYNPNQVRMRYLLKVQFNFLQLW
UniProt P09874, whole entry: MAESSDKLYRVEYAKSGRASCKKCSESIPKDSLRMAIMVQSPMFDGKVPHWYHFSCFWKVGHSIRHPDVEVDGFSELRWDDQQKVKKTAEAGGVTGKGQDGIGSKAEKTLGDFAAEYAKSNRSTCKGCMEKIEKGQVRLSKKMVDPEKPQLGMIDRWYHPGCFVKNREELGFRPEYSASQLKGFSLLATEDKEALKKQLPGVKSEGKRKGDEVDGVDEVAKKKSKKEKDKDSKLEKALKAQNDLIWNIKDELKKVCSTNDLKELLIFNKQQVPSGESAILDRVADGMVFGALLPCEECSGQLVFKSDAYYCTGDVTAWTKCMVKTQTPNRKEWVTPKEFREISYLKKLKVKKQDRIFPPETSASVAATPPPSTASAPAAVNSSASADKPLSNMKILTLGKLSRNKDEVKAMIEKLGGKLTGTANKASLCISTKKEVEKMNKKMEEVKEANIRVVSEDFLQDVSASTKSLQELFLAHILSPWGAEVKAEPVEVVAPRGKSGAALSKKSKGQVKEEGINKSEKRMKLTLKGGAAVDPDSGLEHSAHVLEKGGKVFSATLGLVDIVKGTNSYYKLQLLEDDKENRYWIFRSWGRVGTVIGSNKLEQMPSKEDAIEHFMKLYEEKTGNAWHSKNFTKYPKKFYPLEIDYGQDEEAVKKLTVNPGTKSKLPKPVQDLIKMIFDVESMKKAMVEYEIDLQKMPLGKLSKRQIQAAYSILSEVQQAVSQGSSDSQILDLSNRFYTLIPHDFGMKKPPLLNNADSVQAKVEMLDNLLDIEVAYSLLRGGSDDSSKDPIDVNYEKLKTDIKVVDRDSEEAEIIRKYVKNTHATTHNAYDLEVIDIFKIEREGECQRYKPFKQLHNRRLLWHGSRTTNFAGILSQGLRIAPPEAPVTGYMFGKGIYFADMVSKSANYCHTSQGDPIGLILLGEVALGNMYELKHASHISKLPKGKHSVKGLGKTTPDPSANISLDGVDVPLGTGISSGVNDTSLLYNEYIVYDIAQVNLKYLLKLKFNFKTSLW
UniProt Q7Z2W4: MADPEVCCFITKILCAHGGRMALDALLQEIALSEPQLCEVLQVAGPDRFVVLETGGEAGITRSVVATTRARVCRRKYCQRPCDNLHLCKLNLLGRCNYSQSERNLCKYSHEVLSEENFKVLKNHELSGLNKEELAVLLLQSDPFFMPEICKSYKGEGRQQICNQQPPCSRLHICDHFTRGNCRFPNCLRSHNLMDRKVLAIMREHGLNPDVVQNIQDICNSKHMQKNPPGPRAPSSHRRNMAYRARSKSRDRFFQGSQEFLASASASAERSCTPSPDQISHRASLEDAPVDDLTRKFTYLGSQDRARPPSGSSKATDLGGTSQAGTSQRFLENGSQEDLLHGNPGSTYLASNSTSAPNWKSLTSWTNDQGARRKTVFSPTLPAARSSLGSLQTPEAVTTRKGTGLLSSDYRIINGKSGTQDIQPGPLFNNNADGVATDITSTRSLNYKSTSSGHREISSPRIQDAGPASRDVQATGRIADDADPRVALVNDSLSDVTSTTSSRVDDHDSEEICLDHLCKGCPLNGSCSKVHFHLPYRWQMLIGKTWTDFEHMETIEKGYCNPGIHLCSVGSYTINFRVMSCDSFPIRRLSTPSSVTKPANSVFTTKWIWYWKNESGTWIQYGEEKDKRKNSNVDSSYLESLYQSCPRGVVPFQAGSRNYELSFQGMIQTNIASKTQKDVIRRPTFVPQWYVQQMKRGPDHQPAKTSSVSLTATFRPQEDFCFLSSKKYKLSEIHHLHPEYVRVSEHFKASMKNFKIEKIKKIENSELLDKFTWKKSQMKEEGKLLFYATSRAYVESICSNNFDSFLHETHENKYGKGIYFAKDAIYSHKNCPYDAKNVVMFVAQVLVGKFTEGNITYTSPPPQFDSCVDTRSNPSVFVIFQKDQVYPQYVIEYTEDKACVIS

The target of one experiment is ARTD12/PARP12 (Homo sapiens, UniProt Q9H0J9). The experiment in a line: biochemical. As to conditions: read-out: ΔTm (DSF), ° C. ± STDEV.
For experiment [1], the system named is HeLa cells overexpressing ARTD10. The experiment in a line: Colony formation assay. Type of experiment: cell-based. The settings on record: 10 μM compound, ARTD10 induced with doxycycline 500 ng/ml, 10 days. Here is the method: FIG. 3. […] The different compounds were added as indicated with a final concentration of 10 μM. These were replenished every 48 h. (b) Quantification of the colony formation results. The data represent mean values of three independent experiments performed in duplicates with standard deviations.
The cells were grown in DMEM culture media with 10% FCS, and the plates were incubated at 37° C. with 5% CO2. After 24 h of seeding, over expression of ARTD10 was induced by adding 500 ng/ml doxycycline and the media were also supplemented with the tested compounds at 10 μM concentrations. The cells were allowed to proliferate for the next 10 days, after which they were stained with methylene blue to count the number of surviving colonies. The compounds and doxycycline were replenished every 48 h while fresh media (DMEM supplemented with 10% FCS) was added every four days.

The target of a further experiment is ARTD10/PARP10 (Homo sapiens, UniProt Q53GL7). The settings on record: 100 μM OUL35.
A further experiment has as its target ARTD2/PARP2 (Homo sapiens, UniProt Q9UGN5). Put plainly: biochemical.
For a further experiment, the target named is ARTD1/PARP1 (Homo sapiens, UniProt P09874). The experiment in a line: biochemical.
For the next experiment, the target named is T1, ARTD7/PARP15 (Homo sapiens, UniProt Q460N3).
T1 sequence (Q460N3 1-678): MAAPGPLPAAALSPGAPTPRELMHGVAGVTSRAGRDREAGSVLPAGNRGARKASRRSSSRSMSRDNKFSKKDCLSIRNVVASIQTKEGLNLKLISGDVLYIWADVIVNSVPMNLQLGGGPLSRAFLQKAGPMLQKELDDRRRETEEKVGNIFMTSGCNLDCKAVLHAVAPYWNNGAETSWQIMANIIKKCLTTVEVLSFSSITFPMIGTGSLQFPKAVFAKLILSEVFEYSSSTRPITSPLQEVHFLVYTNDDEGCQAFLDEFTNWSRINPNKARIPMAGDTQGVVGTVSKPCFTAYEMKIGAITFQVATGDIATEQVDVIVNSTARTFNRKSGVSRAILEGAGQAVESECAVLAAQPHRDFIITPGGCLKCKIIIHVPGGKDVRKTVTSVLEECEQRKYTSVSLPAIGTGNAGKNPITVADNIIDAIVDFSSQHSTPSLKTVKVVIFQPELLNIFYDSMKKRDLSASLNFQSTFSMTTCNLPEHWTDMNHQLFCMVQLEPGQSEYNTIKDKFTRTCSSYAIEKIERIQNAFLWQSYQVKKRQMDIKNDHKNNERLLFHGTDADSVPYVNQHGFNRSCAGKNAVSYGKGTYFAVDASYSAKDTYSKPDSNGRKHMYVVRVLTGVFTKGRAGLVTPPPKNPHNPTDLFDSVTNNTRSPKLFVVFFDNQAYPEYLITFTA
Put plainly: biochemical.

Another experiment concerns the target T2, ARTD6/PARP5b (Homo sapiens, UniProt Q9H2K2).
T2 sequence (Q9H2K2 1-1166): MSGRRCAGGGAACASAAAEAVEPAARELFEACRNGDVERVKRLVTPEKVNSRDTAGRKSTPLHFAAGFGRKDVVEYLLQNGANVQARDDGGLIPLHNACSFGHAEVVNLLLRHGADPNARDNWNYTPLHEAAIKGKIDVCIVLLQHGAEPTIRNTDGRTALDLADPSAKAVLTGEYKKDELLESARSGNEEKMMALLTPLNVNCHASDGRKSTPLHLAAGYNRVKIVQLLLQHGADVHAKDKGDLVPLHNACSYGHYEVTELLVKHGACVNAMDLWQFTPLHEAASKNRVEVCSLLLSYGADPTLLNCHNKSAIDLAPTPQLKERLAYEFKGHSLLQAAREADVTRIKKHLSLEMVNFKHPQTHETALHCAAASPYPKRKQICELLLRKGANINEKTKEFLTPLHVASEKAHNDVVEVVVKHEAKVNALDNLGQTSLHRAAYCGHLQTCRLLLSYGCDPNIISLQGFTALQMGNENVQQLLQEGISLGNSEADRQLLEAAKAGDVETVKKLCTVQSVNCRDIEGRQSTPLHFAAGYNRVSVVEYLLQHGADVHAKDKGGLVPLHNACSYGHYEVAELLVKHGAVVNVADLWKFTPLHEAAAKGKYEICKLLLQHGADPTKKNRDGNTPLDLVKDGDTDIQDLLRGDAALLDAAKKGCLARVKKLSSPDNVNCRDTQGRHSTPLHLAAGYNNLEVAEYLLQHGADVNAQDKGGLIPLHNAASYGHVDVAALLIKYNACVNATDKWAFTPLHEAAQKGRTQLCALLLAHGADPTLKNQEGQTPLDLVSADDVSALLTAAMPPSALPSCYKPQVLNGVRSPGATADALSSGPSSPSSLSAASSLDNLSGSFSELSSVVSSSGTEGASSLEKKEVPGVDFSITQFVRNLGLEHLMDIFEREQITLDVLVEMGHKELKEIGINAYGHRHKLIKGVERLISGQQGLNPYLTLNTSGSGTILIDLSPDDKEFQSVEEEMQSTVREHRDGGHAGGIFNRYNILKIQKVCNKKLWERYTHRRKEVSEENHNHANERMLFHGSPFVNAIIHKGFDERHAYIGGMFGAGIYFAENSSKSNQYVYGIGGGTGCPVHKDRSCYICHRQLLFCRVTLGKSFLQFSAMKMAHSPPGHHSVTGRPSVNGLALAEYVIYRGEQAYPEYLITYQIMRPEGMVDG
The experiment in a line: biochemical. As to conditions: read-out: ΔTm (DSF), ° C. ± STDEV.

A further experiment has as its target T3, ARTD5/PARP5a (Homo sapiens, UniProt O95271).
T3 sequence (O95271 1-1327): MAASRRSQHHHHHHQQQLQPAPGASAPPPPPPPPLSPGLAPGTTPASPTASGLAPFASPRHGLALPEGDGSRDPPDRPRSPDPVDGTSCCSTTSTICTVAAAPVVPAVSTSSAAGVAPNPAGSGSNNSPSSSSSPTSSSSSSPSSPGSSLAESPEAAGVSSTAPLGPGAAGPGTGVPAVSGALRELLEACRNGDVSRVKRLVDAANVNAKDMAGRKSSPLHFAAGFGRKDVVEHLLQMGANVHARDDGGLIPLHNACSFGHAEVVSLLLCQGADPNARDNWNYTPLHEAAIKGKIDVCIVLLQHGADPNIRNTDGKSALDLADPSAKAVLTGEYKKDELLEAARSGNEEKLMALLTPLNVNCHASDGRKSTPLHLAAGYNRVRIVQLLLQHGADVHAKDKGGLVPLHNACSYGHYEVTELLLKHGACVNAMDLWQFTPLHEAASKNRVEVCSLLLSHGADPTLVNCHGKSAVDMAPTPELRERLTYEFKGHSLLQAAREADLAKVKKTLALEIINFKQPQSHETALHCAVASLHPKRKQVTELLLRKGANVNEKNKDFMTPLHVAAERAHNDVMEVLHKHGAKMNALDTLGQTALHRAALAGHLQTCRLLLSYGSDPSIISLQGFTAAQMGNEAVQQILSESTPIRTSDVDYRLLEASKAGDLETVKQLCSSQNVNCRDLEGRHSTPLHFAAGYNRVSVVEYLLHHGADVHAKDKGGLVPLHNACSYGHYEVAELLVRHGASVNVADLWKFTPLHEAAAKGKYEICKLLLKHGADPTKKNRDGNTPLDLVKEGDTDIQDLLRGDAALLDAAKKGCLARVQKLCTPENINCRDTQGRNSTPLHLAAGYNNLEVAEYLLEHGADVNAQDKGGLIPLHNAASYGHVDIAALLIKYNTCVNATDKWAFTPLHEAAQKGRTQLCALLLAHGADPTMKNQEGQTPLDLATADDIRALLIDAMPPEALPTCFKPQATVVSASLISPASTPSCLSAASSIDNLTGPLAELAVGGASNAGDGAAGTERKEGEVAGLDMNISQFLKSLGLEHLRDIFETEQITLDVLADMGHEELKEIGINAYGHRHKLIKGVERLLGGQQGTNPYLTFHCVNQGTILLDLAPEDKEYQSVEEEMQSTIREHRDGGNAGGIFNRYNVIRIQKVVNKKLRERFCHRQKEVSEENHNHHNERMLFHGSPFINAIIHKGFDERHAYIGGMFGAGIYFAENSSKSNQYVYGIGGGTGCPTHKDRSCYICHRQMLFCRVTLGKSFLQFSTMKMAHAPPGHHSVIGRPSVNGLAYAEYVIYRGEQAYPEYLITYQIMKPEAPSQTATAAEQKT
The experiment in a line: biochemical. The settings on record: read-out: ΔTm (DSF), ° C. ± STDEV.

The target in the next experiment is ARTD13/PARP13 (Homo sapiens, UniProt Q7Z2W4). The experiment in a line: biochemical. As to conditions: read-out: ΔTm (DSF), ° C. ± STDEV.

Each structure is given as a SMILES string. Entries after “also recorded” stand apart in the source; their conditions may differ.

As for `NC(=O)c1ccc(Oc2ccc(C(N)=O)cc2)cc1` [OUL35, 4,4′-oxydibenzamide], the ΔTm (in general, the change in melting temperature against a reference sample) at 100 µM at ARTD12/PARP12 was 0.87 ± 0.42 °C; at ARTD6/PARP5b, 0.15 ± 0.12 °C; at ARTD5/PARP5a, 0.45 ± 0.01 °C; on ARTD13/PARP13 it was -0.21 ± 0.04 °C. Also, the “rescue of cell proliferation / colony formation” value in experiment [1] is recorded as “complete rescue of cell proliferation; also recorded: efficiently rescued cells overexpressing ARTD10”. Moreover, the “stabilization of catalytic domain (DSF)” value on ARTD10/PARP10 was “stabilized the catalytic domains”. Further, the IC50 against ARTD2/PARP2 and against ARTD1/PARP1 was above 100 µM each time. For the same compound, on ARTD7/PARP15, the inhibition (in general, the drop in the measured response relative to a control, in per cent) at 20 µM is below 50%.
